System: newly-ecdysed fifth instar larvae of G. pyloalis
Assay: Leaf dip bioassay
Type: in vivo, Glyphodes pyloalis Walker
Details: 0.25 ppm, 48 h after treatment
Procedure: The insects used in the present application is Glyphodes pyloalis Walker (Lepidoptera: Pyralidae) which was collected from infested mulberry orchards in the vicinity of Rasht, Iran. Mass rearing of insects was carried out in the laboratory under controlled conditions at 25±1° C., 70±5% RH and 16:8 L:D. Newly-ecdysed fifth instar larvae of G. pyloalis were used for the bioassay experiments. The Glyphodes pyloalis Walker hereinafter is referred to as G. pyloalis.
The toxicity of the encapsulated imidacloprid diluted in water for the newly-ecdysed fifth instar larvae of G. pyloalis was evaluated using leaf dip bioassay. The technical imidacloprid was dissolved in acetone and diluted to generate 6 serial dilutions with distilled water. Mulberry leaf discs with diameters of 3.5 cm were prepared, so that each petiole was placed in a vial containing water for providing moisture to the leaf discs for several days. These discs were then immersed in the dilutions for 45 seconds. Mortality was assessed after the treated larvae were maintained at 25±1° C., 70±10 R.H. for 24, 48, 72, 96 and 120 hours.

COC(=O)N(C(=O)N1CO[C@@]2(C(=O)OC)Cc3cc(Cl)ccc3C2=N1)c1ccc(OC(F)(F)F)cc1 [Indoxacarb, lndoxacarb]
% mortality: 26.61 ± 7.99^gf %

Reference: patent publication US20160000071A1, “PHOTODEGRADABLE, BIOCOMPATIBLE AND EFFICIENT NANO-ENCAPSULATED FORMULATION” (priority 2014, published 2016)
